Sequences of proteins named here, by UniProt entry; tags and fusion partners are left off.
UniProt Q9NUW8, whole entry: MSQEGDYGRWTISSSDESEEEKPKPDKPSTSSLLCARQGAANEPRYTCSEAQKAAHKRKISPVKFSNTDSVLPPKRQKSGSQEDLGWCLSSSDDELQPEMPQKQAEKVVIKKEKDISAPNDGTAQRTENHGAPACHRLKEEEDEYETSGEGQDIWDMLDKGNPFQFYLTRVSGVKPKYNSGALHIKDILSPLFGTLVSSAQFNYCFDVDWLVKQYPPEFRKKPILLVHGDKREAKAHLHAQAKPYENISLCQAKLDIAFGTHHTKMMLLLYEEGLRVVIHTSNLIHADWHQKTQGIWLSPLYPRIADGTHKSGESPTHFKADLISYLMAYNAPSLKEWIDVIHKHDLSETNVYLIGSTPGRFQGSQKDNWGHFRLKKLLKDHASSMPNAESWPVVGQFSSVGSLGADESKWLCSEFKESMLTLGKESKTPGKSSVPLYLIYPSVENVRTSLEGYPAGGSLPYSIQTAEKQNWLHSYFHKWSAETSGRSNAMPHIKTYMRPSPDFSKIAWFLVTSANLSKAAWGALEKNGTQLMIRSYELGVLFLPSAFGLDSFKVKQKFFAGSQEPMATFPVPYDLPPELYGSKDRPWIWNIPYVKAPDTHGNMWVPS

According to US20250011330A1, “Imidazo[1,2- a]pyrazine and Imidazo[1,2- a]pyridine Based Tyrosyl-DNA Phosphodiesterase I (TDP1) Inhibitors” (The USA, As Represented by the Secretary, Department of …, priority 2021, published 2025):

What was measured:
TDP1 [1] = target: T1, TDP1 (Homo sapiens (Human), UniProt Q9NUW8); experiment: Degradation assay (western blotting) of TDP1 in HCT116 and HEK293 cells; type: cell-based; conditions: list in description
Method: The degradation effect of the TDP1 inhibitors on TDP1 in human colon cancer cell line HCT116 and embryonic kidney cell line HEK293 were studied. Cells were first seeded in a 6-well plate until 60-80% confluency and then incubated with a serial dilution of TDP1 inhibitors at the range of 25-200 μM for 24-72 h at 37° C. Drug treated cells were collected and washed twice by DPBS followed by lysing in 1×RIPA buffer (50 mM Tris HCl, pH 7.4, 150 mM NaCl, 1 mM EDTA, 1 mM DTT, 0.1% sodium deoxycholate, 0.1% SDS, and 1% TritonX-100) supplemented with 1× protease inhibitor cocktail (Thermo). Samples were then sonicated at 30% for 10 s and centrifuged for 15 min at 15000 rpm at 4 Celsius. Supernatant were collected and the concentration of total protein were measured by BCA Protein Assay Kit according to its protocols. Four micrograms of total protein for each sample were loaded and TDP1 level were conducted by western blotting.

TDP1 [2] = target: T1, TDP1; experiment: TDP1 gel-based in vitro fluorescence assay; type: biochemical; conditions: for IC50: Table 8, lead compounds with different linkers; for FC (fold change): Table 8, ratio of IC50 TDP2 to TDP1
Method: (TDP assay buffer: 50 mM Tris HCl, pH 7.5, 80 mM KCl, 2 mM EDTA, 1 mM DTT, 40 μg/ml BSA and 0.01% Tween-20. TDP1 (20 mg/mL in 25 mM Tris-HCl pH 7.2, 150 mM NaCl, 2 mM tris(2-carboxyethyl)phosphine) with 2 mL of well solution composed of 0.1 M MOPS/HEPES pH 7.5, 10% (w/v) PEG 8000, 20% (v/v) ethylene glycol, 0.03 M sodium fluoride, 0.03 M sodium bromide, 0.03 M sodium iodide, 0.03 M sodium bromide and sealed over […] well solution. AF647 labelling buffer: Tris-HCl (pH 7.2, 25 mM), NaCl (150 mM), and tris(2-carboxyethyl)phosphine hydrochloride (TCEP, 2 mM).)
(DNA only: Buffer+DMSO. DMSO only: Enzyme+DMSO. Drug: Enzyme+Drug, 25° C., 10 min+DNA, reaction at 25° C., 15 min.)
Gel images were scanned using a Typhoon FLA 9500 scanner (GE Healthcare) and densitometric analyses were performed using the ImageQuant software (GE Healthcare). The IC50 of TDP1 inhibitors was calculated by comparing the percentage of cleavage product (5′Cy5-[…]-p-3′) to DMSO control.

Row | Substance | TDP1 degrading activity (TDP1 [1]) | IC50 (TDP1 [2]) [µM] | FC (fold change) (TDP1 [2])
1 | 4-((2-(4-(2-((4-(5-((λ^2-Azaneylidene)-λ^3-methyl)pyridin-2-yl)phenyl)methoxy)ethyl)phenyl)-7-phenylimidazo[1,2-a]pyridin-3-yl)amino)benzoic acid [XZ726] | exhibit TDP1 degrading activity | 2.75 ± 0.25 | >36
2 | 4-((2-(4-(2-((4-(5-((λ^2-Azaneylidene)-λ^3-methyl)pyridin-2-yl)phenyl)methoxy)ethyl)phenyl)imidazo[1,2-a]pyridin-3-yl)amino)benzoic acid [XZ727] |  | 25.1 ± 1.25 | 3
